The target in test [1] is human thyroid hormone receptors TRα1 (Homo sapiens, UniProt P10827). Kind of test: Receptor binding to TRα1 (gel filtration and scintillation proximity assay, labeled T3). Particulars: read-out: Ki TRα; SPA data.
The target in test [2] is human thyroid hormone receptors TRβ1 (Homo sapiens, UniProt P10828). Kind of test: Receptor binding to TRβ1 (gel filtration and scintillation proximity assay, labeled T3). The settings on record: read-out: Ki TRβ; SPA data. (SEC sorts molecules by how far they enter the pores of the column.)

Sequences of proteins named here, by UniProt entry; tags and fusion partners are left off. Residues count along the entry.
UniProt P10827, 1-410 isoform 2: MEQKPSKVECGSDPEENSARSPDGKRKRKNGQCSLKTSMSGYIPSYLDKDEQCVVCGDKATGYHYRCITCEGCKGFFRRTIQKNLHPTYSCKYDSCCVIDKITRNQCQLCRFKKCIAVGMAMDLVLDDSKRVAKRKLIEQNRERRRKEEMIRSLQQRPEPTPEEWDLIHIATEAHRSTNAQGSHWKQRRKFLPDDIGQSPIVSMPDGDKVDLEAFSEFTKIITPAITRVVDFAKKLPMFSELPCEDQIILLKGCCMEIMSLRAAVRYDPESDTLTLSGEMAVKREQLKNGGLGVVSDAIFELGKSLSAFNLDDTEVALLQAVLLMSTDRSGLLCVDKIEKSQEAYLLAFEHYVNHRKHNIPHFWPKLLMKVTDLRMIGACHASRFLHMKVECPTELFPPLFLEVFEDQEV
UniProt P10828, whole entry: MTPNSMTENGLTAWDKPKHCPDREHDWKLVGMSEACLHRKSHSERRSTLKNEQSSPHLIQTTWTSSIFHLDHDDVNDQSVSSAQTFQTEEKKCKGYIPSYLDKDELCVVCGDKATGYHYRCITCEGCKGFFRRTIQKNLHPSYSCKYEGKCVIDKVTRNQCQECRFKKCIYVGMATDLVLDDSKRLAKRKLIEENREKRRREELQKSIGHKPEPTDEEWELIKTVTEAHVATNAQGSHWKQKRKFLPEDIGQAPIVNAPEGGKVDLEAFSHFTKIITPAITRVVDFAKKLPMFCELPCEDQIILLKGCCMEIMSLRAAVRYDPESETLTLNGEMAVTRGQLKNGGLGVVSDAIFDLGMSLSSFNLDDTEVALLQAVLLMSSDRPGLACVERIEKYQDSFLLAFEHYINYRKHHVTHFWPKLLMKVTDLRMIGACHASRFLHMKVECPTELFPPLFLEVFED
UniProt P19793, whole entry partner: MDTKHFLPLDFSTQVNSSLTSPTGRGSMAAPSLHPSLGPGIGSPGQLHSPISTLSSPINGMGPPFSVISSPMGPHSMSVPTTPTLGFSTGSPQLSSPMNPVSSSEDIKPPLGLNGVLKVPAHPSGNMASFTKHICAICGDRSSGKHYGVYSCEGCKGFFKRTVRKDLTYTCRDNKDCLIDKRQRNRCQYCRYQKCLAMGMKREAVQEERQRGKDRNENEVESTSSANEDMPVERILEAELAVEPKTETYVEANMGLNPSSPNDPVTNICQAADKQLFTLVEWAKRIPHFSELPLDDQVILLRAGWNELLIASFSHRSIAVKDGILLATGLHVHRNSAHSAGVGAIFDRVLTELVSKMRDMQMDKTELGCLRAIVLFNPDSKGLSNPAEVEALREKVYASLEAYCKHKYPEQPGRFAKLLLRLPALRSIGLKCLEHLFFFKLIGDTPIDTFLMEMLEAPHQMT

Take `Cc1cc(C(=O)CP(=O)(O)O)cc(C)c1Cc1ccc(F)c(C(C)C)c1`: the Ki in test [1] and in test [2] was greater than 2 µM in each case.

These data come from US20090028925A1, “Novel Phosphinic Acid-Containing Thyromimetics” (priority 2005, published 2009).
